Several values for one entry are separate records, joined by “and”; a condition that tells them apart may be missing. Equal entries are not always repeated.
Experiments:
[1] = test system: Immature Sprague Dawley CD (SD) BR female rats; assay: In vivo Rat Follicle Maturation Assay (ovulated oocytes after r-hCG)
Source text: In vivo Rat Follicle Maturation Assay: Immature female rats arrived on Friday of the week prior to the experimentation at 18–19 days of age along with a lactating female (ten pups per lactating female). All rats were weaned from the mother on the following Monday (21–22 days old) and were randomly sorted into the experimental groups (6–8 animals/group).
The rats were subcutaneously injected (in the scruff of the neck) twice a day for two days (first injection: 8.30–9.00 and second injection 15.30–16.00) with r-hFSH or vehicle (PBS) at a volume of 250 μL/injection. The doses of FSH injected were either suboptimal (606 ng/rat total dose split over four injections; indicated as ‘Low FSH’ in Figures) or high (2424.8 ng/rat total dose split over 4 injections; indicated as ‘High FSH’ in Figures) as a positive control.
In addition to the above injections, rats were also injected subcutaneously with the test compounds or vehicle twice a day for 2 days at indicated doses (mg/kg/injection), concomitantly with the FSH injections. These compounds were diluted in either NP3S (n-methyl-2-pyrrolidone 5%, polyethylene glycol 400 30%, polyethylene glycol 200 25%, propylene glycol 20%, saline 20%) or aqueous vehicles. Therefore, the total number of injections received by each rat to promote follicle growth was eight, including four injections of r-hFSH or r-hFSH vehicle plus four injections of test compound or test compound vehicle. […]
Pairs of oviducts were placed on one slide and then a slide was placed on top of the first slide using a piece of tape to secure the frosted ends of the slides together. […] The oviducts were then examined by a light microscope under contrast phase conditions (at a minimum of 40× magnification) and the ova, if any, present in the two ampullae for each rat were counted. […]
The proportion of ovulating animals, the average number ova present in the ampulla per rat, and the average ovary weight were calculated from the single values in each experimental group and the relevant graphs were plotted. […]

[2] = test system: Immature Sprague Dawley CD (SD) BR female rats; assay: Histological count of secondary and antral follicles in rat ovaries; assay type: in vivo
Method: Experiments were conducted according to the In Vivo Rat Follicle Maturation Assay, described above. In one experiment, ovaries were harvested from rats at midday of the second day of treatment for histological analysis, prior to the last set of injections. These rats received only the first three doses of FSH and test compound prior to euthanasia and organ harvest. The secondary follicles were evaluated by counting the total number of secondary follicles: including both small follicles (those at any intermediate stage of maturation, having a multilayered granulosa with the first, scattered vacuoles, but without an antrum) and antral follicles (those having antral dilation, with an external diameter of around 500 microns, or higher, with or without thinning of the granulosa cell layer). The antral follicles (≧500 mcm) were also counted separately.

[3] = High FSH alone (606.2 ng×3 per rat)
[4] = Low FSH alone (151.5 ng×3 per rat)

FSH: Human recombinant follicle stimulating hormone (r-hFSH) supplied by Laboratoires Serono Aubonne
average number of oocytes per rat ([1]; FSH low dose alone (151.5 ng×4 per rat s.c.) plus compound vehicle, control of each experiment): one and 2.4 and 1 and 5 | rats ovulated ([1]; FSH low dose alone plus compound vehicle, control of each experiment): 4 out of ten and 5 out of ten and 3 out of ten and 2 out of 8 | average number of oocytes per rat ([1]; high dose FSH alone (606.2 ng×3 per rat as printed)): 21 and 20 and 15–18 | total number of antral follicles per rat (2 ovaries) [2, 3]: 9.5 | total number of secondary follicles per rat (2 ovaries) [2, 3]: 64 | total number of antral follicles per rat (2 ovaries) [2, 4]: 4.1 | total number of secondary follicles per rat (2 ovaries) [2, 4]: 64

Reference: patent publication US7153824B2, “Inhibitors of phosphodiesterases in infertility” (Applied Research Systems ARS Holding N.V., priority 2003, dated 2006)
